Test results: US9758541B2 (priority 2013, dated 2017)

Conditions: after preparative HPLC separation

Row | Substance | conversion of separated isomers into the 50/50 mixture | time for separated Z and E isomers to convert into the 50/50 mixture
1 | 2-ferrocenyl-1-(4-hydroxyphenyl)-5-hydroxy-1-phenyl-pent-1-ene [P681] | slowly converted into the 50/50 mixture | –
2 | Methyl 4-ene-4-ferrocenyl-5-(4-hydroxyphenyl)-5-phenyl-pentanoate [P680] | – | less than 12 hours
